Tests used:
[1] = test system: Aβ42
[2] = test system: human wild type APPC99-3xFLAG substrate
[3] = test system: Human Amyloid 45 fragment (Aβ45)
[4] = test system: Aβ43
[5] = test system: V46I (V717I) mutant APPC99-3xFLAG substrate
[6] = test system: T43I (T714I) mutant APPC99-3xFLAG substrate
[7] = test system: Notch-based (Notch-3xFLAG) substrate
[8] = test system: Human Amyloid 46 fragment (Aβ46)
[9] = test system: V46F (V717F) mutant APPC99-3xFLAG substrate
[10] = test system: I45F (I716F) mutant APPC99-3xFLAG substrate

Row | Substance | Tm (° C.) of Aβ38 generation (carboxypeptidase-like activity) [1] [°C] | Tm (° C.) of AICD-3XFLAG production (endopeptidase activity) [2] [°C] | Tm (° C.) of Aβ42 generation (carboxypeptidase-like activity) [3] [°C] | Tm (° C.) of Aβ40 generation (carboxypeptidase-like activity) [4] [°C] | also measured
1 | E280A-PSEN1 mutant γ-secretase complex (PSEN1/APH1A) | 45 | 56.6 | 48.8 | 45.4 | –
2 | M139V-PSEN1 mutant γ-secretase complex (PSEN1/APH1A) | 44 | 54.2 | 47.9 | 46.2 | –
3 | purified wild type human γ-secretase (PSEN1/APH1a) | – | 61.1 | 54.7 | 50.4 | Tm (° C.) of AICD-3XFLAG production (endopeptidase activity) [5]: 58 °C; Tm (° C.) of AICD-3XFLAG production (endopeptidase activity) [6]: 59.8 °C; Tm of NICD production (ε-cleavage), 95% CI [7]: 95% CI: 57.4° C-59.2 °C; Km, Aβ46 → Aβ43, 37° C. [8]: 3.3 µM; Km, Aβ46 → Aβ43, 51° C. [8]: 2.3 µM; optimum temperature of Aβ43 production, 95% CI [8]: Aβ43 (95% CI=47.8 to 49.6° C.); Tm (° C.) of AICD-3XFLAG production (endopeptidase activity) [9]: 55.4 °C; Km, Aβ45 → Aβ42, 37° C. [3]: 2.9 µM; Km, Aβ45 → Aβ42, 45° C. [3]: 1.7 µM; Km, Aβ45 → Aβ42, 51° C. [3]: 1.4 µM; optimum temperature of Aβ42 production, 95% CI [3]: Aβ42 (95% CI=43.9 to 46.4° C.); decrease of the conversion of Aβ43 to Aβ40 at 51° C. against 37° C. [4]: drastically decreases (˜82%) at 51 °C; optimum temperature of Aβ40 production, 95% CI [4]: Aβ40 (95% CI=38.3 to 40.7° C.); Tm (° C.) of AICD-3XFLAG production (endopeptidase activity) [10]: 56.4 °C
4 | L166P-PSEN1 mutant γ-secretase complex (PSEN1/APH1A) | 43.9 | 48.5 | 41 | 41.9 | –
5 | R278I-PSEN1 mutant γ-secretase complex (PSEN1/APH1A) | – | 52.4 | – | – | –
6 | G384A-PSEN1 mutant γ-secretase complex (PSEN1/APH1A) | 44.2 | 48.9 | 45.3 | 44.2 | –
7 | L435F-PSEN1 mutant γ-secretase complex (PSEN1/APH1A) | – | 48.6 | – | – | –
8 | Y115H-PSEN1 mutant γ-secretase complex (PSEN1/APH1A) | 44.3 | 53.4 | 47 | 45.6 | –
